Biological target: PD-1/PD-L1 (Homo sapiens, UniProt Q9NZQ7)
Assay: PD-1/PD-L1 homogeneous time-resolved fluorescence (HTRF) binding assay
Conditions: PD-1/PD-L1 HTRF binding, ~3 nM PD1, 10 nM PD-L1, 25° C., PBS pH 7.4
Experimental: Assays were performed in standard black 384-well polystyrene plates and a final volume was 20 μL. The inhibitor was first serially diluted with DMSO and added to the wells of the plate, followed by the addition of other reaction components. The final concentration of DMSO in the assay was 1%. Assays were performed at 25° C. in PBS buffer (pH 7.4) containing 0.05% Tween-20 and 0.1% BSA. Recombinant human PD-L1 protein (19-238) with a His-tagged at the C-terminus was purchased from AcroBiosystems (PD1-H5229). Recombinant human PD-1 protein (25-167) with an Fc tag at the C-terminus was also purchased from AcroBiosystems (PD1-H5257). The PD-L1 and PD-1 proteins were diluted in assay buffer and then […] of the solution was extracted and added to the wells of the plate. Plates were centrifuged and proteins and inhibitors were preincubated for 40 minutes. After incubation, 0.1 μl of HTRF detection buffer containing europium […] labeled anti-human IgG (PerkinElmer-AD0212), Fc-specific and anti-His SureLight®-Allophycocyanin (APC, PerkinElmer-AD0059H) conjugated antibodies was added. After centrifugation, the plates were incubated at 25° C. for 60 minutes. Data was read in a PHERAstar FS plate reader (665 nm/620 nm ratio). Final concentrations in the assay were ˜3 nM PD1, 10 nM PD-L1, 1 nM europium anti-human IgG, and 20 nM anti-His-allophycocyanin. Activity data were fitted using GraphPad Prism 5_0 software to derive IC50 values for inhibitors.

Protein sequences, listed by entry. Tags and fused reporters are not part of them. Residues count along the entry.
UniProt Q9NZQ7, 19-238 limits assumed: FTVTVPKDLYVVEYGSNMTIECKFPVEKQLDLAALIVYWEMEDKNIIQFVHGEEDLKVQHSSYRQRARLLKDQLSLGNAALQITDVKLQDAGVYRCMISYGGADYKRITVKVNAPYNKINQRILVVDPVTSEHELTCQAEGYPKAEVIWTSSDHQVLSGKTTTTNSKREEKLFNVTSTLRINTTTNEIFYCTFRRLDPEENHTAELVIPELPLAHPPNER

IC50, < 0.01 µM:
Cc1c(Nc2nccc3cc(CN4CC[C@@H](O)C4)cnc23)cccc1-c1cccc(-c2nc3cc4c(c(C#N)c3o2)CCC4N2CC(C(=O)O)C2)c1C (stereo partly drawn)
N#Cc1c2c(cc3nc(-c4cccc(-c5cccc(Nc6nccc7cc(CN8CC[C@@H](O)C8)cnc67)c5Cl)c4Cl)oc13)[C@H](NCC(=O)O)CC2
N#Cc1c2c(cc3nc(-c4cccc(-c5cccc(Nc6nccc7cc(CN8CC[C@@H](O)C8)cnc67)c5Cl)c4Cl)oc13)[C@H](N1CC[C@@H](C(=O)NS(=O)(=O)C3CC3)C1)CC2 [Compound 236]

Source: US20220372031A1, “NOVEL TRICYCLIC AROMATIC HETEROCYCLIC COMPOUND, PREPARATION METHOD THEREFOR, PHARMACEUTICAL COMPOSITION AND APPLICATION THEREOF” (SHANGHAI LONGWOOD BIOPHARMACEUTICALS CO., LTD., priority 2019, published 2022)
